Earlier results in patent publication US10655161B2 (dated 2020).

Conditions: human, in vivo; cited from earlier work

Compound: Cc1nc(Nc2ncc(C(=O)Nc3c(C)cccc3Cl)s2)cc(N2CCN(CCO)CC2)n1 [Dasatinib, dasatinib]
- Achievable plasma trough concentration: about 100 nM
